The results in this text go back to patent US10189853B2, “Conformationally restricted 4-substituted-2,6-dimethylfuro[2,3-d]pyrimidines as anti-tumor agents” (DUQUESNE UNIVERSITY OF THE HOLY SPIRIT, priority 2014, dated 2019).

Sequences of proteins named here, by UniProt entry; tags and fusion partners are left off. Residues count along the entry.
UniProt P09619, 33-1106: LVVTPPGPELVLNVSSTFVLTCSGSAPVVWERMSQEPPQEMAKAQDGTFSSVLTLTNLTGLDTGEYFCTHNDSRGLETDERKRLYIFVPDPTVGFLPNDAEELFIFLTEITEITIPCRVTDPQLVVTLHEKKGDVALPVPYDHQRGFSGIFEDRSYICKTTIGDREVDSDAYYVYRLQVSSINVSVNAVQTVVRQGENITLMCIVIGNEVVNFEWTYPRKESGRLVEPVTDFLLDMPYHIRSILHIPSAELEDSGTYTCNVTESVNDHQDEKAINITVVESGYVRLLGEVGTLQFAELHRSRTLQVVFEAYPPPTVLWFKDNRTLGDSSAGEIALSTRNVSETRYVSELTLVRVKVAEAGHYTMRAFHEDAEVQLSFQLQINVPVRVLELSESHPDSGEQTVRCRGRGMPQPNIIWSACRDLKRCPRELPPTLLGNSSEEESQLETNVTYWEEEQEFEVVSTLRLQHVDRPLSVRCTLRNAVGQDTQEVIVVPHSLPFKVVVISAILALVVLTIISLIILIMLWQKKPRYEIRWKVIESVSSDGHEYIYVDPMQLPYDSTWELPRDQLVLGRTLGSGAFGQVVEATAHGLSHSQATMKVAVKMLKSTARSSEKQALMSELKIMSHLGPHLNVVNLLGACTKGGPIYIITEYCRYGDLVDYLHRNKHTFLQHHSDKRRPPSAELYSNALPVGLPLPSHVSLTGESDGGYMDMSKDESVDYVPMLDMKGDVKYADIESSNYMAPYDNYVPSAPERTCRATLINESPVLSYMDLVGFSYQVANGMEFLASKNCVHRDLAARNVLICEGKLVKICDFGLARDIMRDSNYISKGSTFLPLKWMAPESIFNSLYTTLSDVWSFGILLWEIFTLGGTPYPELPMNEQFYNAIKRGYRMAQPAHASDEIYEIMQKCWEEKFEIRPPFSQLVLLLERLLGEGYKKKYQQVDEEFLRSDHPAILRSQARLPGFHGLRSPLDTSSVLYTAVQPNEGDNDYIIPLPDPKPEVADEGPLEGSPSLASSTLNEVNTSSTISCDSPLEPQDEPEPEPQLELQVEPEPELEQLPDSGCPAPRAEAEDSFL

The structures appear in SMILES notation.

For one test, the target named is PDGFR-β (Homo sapiens (Human), UniProt P09619). Nature of the test: PDGFR-β kinase inhibition, phosphotyrosine ELISA cytoblot. The class given is cell-based. The following applies: SH-SY5Y cells. Background: ELISA stands for enzyme-linked immunosorbent assay.
The test system of the next test is purified tubulin. Nature of the test: Inhibition of tubulin assembly. The class given is biochemical. To be noted: read-out: Inhibition tubulin assembly IC50 ± SD.

In general, IC50 refers to the point on the concentration scale where inhibition reaches its midpoint. `COc1ccc2c(ccn2-c2nc(C)nc3oc(C)cc23)c1` [Compound 9, 4-(5-methoxy-1H-indol-1-yl)-2,6-dimethylfuro[2,3-d]pyrimidine] yielded an IC50 at PDGFR-β of 198 ± 22.5 nM.

For the molecule `COc1ccc2c(c1)CCCN2c1nc(C)nc2oc(C)cc12` [Compound 10, 4-(6-methoxy-3,4-dihydroquinolin-1(2H)-yl)-2,6-dimethylfuro[2,3-d]pyrimidine], in the test on purified tubulin, the IC50 turned out to be 1100 ± 100 nM.
